Results from patent EP2934149B1, “C6-AZASPIRO IMINOTHIADIAZINE DIOXIDES AS BACE INHIBITORS” (Merck Sharp & Dohme Corp., priority 2012, dated 2014).

Sequences of proteins named here, by UniProt entry; tags and fusion partners are left off. Residues count along the entry.
UniProt P56817, 75-416 limits assumed: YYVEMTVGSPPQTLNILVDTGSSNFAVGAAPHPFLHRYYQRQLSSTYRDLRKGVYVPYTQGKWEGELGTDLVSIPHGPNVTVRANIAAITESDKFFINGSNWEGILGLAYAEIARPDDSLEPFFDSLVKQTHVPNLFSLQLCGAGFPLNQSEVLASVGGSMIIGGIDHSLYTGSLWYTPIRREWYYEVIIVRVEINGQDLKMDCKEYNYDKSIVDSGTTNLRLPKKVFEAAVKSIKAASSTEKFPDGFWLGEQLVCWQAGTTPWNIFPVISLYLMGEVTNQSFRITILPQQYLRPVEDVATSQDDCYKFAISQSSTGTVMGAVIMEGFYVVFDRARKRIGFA

How the values were obtained:
[1] = target: soluble human BACE1 catalytic domain (Homo sapiens, UniProt P56817); test: BACE1 HTRF FRET Assay; assay type: biochemical; conditions: Ki calculated from IC50 using the Cheng-Prusoff equation; QSY7-APPswe-Eu substrate 200 nM final, pH 5.0, 30° C
Method: A homogeneous time-resolved FRET assay can be used to determine IC50 values for inhibitors of the soluble human BACE1 catalytic domain. […] This substrate contains an N-terminal QSY7 moiety that serves as a quencher of the C-terminal Europium fluorophore (620nm Em). […] Inhibition of BACE1 cleavage of the QSY7-APP^swe-Eu substrate by inhibitors is manifested as a suppression of 620 nm fluorescence. […] The reactions are incubated at 30° C for 1.5 hours. The 620nm fluorescence is then read on a Rubystar HTRF plate reader (BMG Labtechnologies) using a 50 millisecond delay followed by a 400 millisecond acquisition time window. Inhibitor IC50 values are derived from non-linear regression analysis of concentration response curves.

[2] = target: T1, purified human autoBACE-2 (Homo sapiens, UniProt Q9Y5Z0); test: BACE-2 Assay (BACE-HTRF assay); assay type: biochemical; conditions: Ki calculated from IC50 using the Cheng-Prusoff equation; QSY7-EISEVNLDAEFC-Eu-amide substrate 200 nM final, pH 5.0, 30°C; read-out: BACE2 Ki
T1 sequence (Q9Y5Z0 63-473 limits assumed): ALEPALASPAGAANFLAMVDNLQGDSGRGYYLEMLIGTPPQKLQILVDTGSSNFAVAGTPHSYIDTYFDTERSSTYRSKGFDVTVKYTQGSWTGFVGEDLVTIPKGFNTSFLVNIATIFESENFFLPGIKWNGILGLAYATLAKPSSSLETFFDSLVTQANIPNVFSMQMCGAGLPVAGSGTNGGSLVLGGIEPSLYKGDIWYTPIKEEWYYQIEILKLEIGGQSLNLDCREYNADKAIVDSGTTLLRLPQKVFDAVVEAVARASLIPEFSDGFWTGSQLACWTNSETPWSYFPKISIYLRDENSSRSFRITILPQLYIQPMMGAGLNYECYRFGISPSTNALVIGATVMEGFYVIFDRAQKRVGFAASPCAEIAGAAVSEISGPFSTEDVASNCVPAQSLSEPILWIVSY
Method: Inhibitor IC50's at purified human autoBACE-2 are determined in a time-resolved endpoint proteolysis assay that measures hydrolysis of the QSY7-[…]-Eu-amide FRET peptide substrate (BACE-HTRF assay). […] Inhibitor compounds, prepared at 3x the desired final concentration in 1x BACE assay buffer (20 mM sodium acetate pH 5.0,10% glycerol, 0.1% Brij-35) supplemented with 7.5% DMSO are pre-incubated with an equal volume of autoBACE-2 enzyme diluted in 1x BACE assay buffer (final enzyme concentration 1 nM) in black 384-well NUNC plates for 30 minutes at 30°C. […] DMSO is present at 5% final concentration in the assay. Following laser excitation of sample wells at 320 nm, the fluorescence signal at 620 nm is collected for 400 ms following a 50 µs delay on a RUBYstar HTRF plate reader (BMG Labtechnologies). Raw RFU data is normalized to maximum (1.0 nM BACE/DMSO) and minimum (no enzyme/DMSO) RFU values. […] The Ki values are calculated from the IC50 using the Cheng-Prusoff equation.

## CN1C(=N)N[C@](C)(c2cc(NC(=O)c3ccc(F)cn3)ccc2F)[C@@]2(CCN(CC3CCOC3)C2)S1(=O)=O (some centres unmarked) [Example 43]
[1]
  Ki: 119 nM
[2]
  Ki: 72 nM
